Marks after values point to notes of the source that are not given here.
Key:
[1] = system: human red blood cells (hRBCs); details: 1 h of incubation
S. aureus = assay: Antibacterial activity (MIC) against S. aureus; type: cell-based; details: minimum inhibitory concentration
From the text: (§1) The antibacterial activity of the five peptides was explored with E. coli and S. aureus. […] Electrostatic interactions between cationic AMPs and the negatively charged bacterial membrane are believed to be the first step in antibacterial action, thereby explaining the improved antibacterial activity when going from P11 LRR (+4 charge) to P14LRR (+8 charge). […] Replacing the fluorescein moiety in P14LRR with an acetyl group led to no discernible change in activity.

E. coli = assay: Antibacterial activity (MIC) against E. coli; type: cell-based; details: minimum inhibitory concentration
From the text: as §1

## CC[C@H](C)[C@H](NC(=O)CN)C(=O)NCC(=O)N[C@@H](C)C(=O)N[C@H](C(=O)N[C@@H](CC(C)C)C(=O)N[C@@H](CCCCN)C(=O)N[C@H](C(=O)N[C@@H](CC(C)C)C(=O)N[C@H](C(=O)N[C@H](C(=O)NCC(=O)N[C@@H](CC(C)C)C(=O)N1CCC[C@H]1C(=O)N[C@@H](C)C(=O)N[C@@H](CC(C)C)C(=O)N[C@H](C(=O)N[C@@H](CO)C(=O)N[C@@H](Cc1c[nH]c2ccccc12)C(=O)N[C@H](C(=O)N[C@@H](CCCCN)C(=O)N[C@@H](CCCNC(=N)N)C(=O)N[C@@H](CCCCN)C(=O)N[C@@H](CCCNC(=N)N)C(=O)N[C@@H](CCC(N)=O)C(=O)N[C@@H](CCC(N)=O)C(N)=O)[C@@H](C)CC)[C@@H](C)CC)[C@@H](C)O)[C@@H](C)O)C(C)C)C(C)C [Melittin]
[1]
  Hemolysis: 5^[b] μM
S. aureus
  S. aureus MIC: 2.1 µM
E. coli
  E. coil MIC: 4.6 µM

— patent US9533975B2, “Dual-action, unnatural proline-rich peptides as antibiotic agents and methods thereof” (Purdue Research Foundation, priority 2014, dated 2017)
